ChEMBL document CHEMBL5584361, “Re-Evaluating PIN1 as a Therapeutic Target in Oncology Using Neutral Inhibitors and PROTACs” (J Med Chem, 2024)

Chains of the proteins cited; added tags and fusions are not shown. Lines headed by an entry give the natural chain unless they say otherwise; changes in a name come on top.
UniProt Q13526, whole entry, looked up: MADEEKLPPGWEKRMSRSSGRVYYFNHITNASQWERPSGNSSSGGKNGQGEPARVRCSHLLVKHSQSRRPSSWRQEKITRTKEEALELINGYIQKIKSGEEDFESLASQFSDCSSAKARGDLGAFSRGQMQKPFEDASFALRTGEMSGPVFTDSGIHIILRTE
UniProt Q96SW2: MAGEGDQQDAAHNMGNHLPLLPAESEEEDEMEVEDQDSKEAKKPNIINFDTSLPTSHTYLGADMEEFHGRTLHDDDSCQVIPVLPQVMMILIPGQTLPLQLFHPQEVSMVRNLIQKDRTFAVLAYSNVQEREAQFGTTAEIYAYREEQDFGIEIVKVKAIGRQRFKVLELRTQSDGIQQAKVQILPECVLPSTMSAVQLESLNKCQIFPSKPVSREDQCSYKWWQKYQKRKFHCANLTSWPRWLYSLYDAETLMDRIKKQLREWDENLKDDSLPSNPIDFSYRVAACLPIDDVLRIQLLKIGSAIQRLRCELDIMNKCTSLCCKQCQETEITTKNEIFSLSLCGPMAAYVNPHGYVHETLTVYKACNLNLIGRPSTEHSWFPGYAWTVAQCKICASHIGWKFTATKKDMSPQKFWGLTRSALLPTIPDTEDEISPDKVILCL

Legend:
[1] = Efflux ratio of permeability across basolateral to apical side over apical to basolateral side in MDCK cells incubated for 120 mins by LC-MS/MS analysis; format: ADME, cell-based, Canis lupus familiaris; conditions: dog, 2 h
[2] = biological target: T1, Protein cereblon/Peptidyl-prolyl cis-trans isomerase NIMA-interacting 1 (Homo sapiens, UniProt Q13526+Q96SW2); test: PROTAC activity at CRBN/PIN1 in human MDA-MB-468 cells assessed as induction of PIN1 degradation by measuring maximal efficacy incubated for 24 hrs by high content analysis relative to control; format: cell-based
MDA-MB-468 [3] = test: Antiproliferative activity against human MDA-MB-468 cells assessed as inhibition of cell growth incubated for 144 hrs in presence of 1:2 of compound:sulfopin; format: functional, cell-based
MDA-MB-468 [4] = test: Antiproliferative activity against human MDA-MB-468 cells assessed as inhibition of cell growth incubated for 144 hrs in presence of 1.5:1 of compound:sulfopin; format: functional, cell-based
MDA-MB-468 [5] = test: Antiproliferative activity against human MDA-MB-468 cells assessed as inhibition of cell growth incubated for 144 hrs; format: functional, cell-based
MDA-MB-468 [6] = test: Antiproliferative activity against human MDA-MB-468 cells assessed as inhibition of cell growth incubated for 144 hrs in presence of sulfopin; format: functional, cell-based
MDA-MB-468 [7] = test: Antiproliferative activity against human MDA-MB-468 cells assessed as inhibition of cell growth incubated for 144 hrs in presence of 4.5:1 of compound:sulfopin; format: functional, cell-based
MDA-MB-468 [8] = test: Antiproliferative activity against human MDA-MB-468 cells assessed as inhibition of cell growth incubated for 144 hrs in presence of 1:18 of compound:sulfopin; format: functional, cell-based
MDA-MB-468 [9] = test: Antiproliferative activity against human MDA-MB-468 cells assessed as inhibition of cell growth incubated for 144 hrs in presence of 1:6 of compound:sulfopin; format: functional, cell-based
[10] = biological target: Peptidyl-prolyl cis-trans isomerase NIMA-interacting 1 (Homo sapiens, UniProt Q13526); test: Binding affinity to GST-tagged PIN1 (unknown origin) assessed as dissociation constant by SPR analysis
MDA-MB-468 [11] = test: Antiproliferative activity against human MDA-MB-468 cells assessed as inhibition of cell growth incubated for 144 hrs in presence of 1:4.5 of compound:olaparib; format: functional, cell-based
MDA-MB-468 [12] = test: Antiproliferative activity against human MDA-MB-468 cells assessed as inhibition of cell growth incubated for 144 hrs in presence of olaparib; format: functional, cell-based
MDA-MB-468 [13] = test: Antiproliferative activity against human MDA-MB-468 cells assessed as inhibition of cell growth incubated for 144 hrs in presence of 18:1 of compound:olaparib; format: functional, cell-based
MDA-MB-468 [14] = test: Antiproliferative activity against human MDA-MB-468 cells assessed as inhibition of cell growth incubated for 144 hrs in presence of 2:1 of compound:olaparib; format: functional, cell-based
MDA-MB-468 [15] = test: Antiproliferative activity against human MDA-MB-468 cells assessed as inhibition of cell growth incubated for 144 hrs in presence of 1:1.5 of compound:olaparib; format: functional, cell-based
MDA-MB-468 [16] = test: Antiproliferative activity against human MDA-MB-468 cells assessed as inhibition of cell growth incubated for 144 hrs in presence of 6:1 of compound:olaparib; format: functional, cell-based
[17] = biological target: T1, Protein cereblon/Peptidyl-prolyl cis-trans isomerase NIMA-interacting 1; test: PROTAC activity at CRBN/PIN1 in human MDA-MB-468 cells assessed as induction of PIN1 degradation incubated for 24 hrs by Western blotting; format: cell-based; conditions: dose 0.001-1 µM
[18] = biological target: T1, Protein cereblon/Peptidyl-prolyl cis-trans isomerase NIMA-interacting 1; test: PROTAC activity at CRBN/PIN1 in human MDA-MB-468 cells assessed as induction of PIN1 degradation at 0.001 to 1 uM incubated for 24 hrs in presence of sulfopin by Western blotting; format: cell-based; conditions: dose 0.001-1 µM

Ratio [1]: 124
Compound: Cc1ccccc1C1(C(=O)NC(Cc2cn(-c3ccc(-c4ccc(C#N)cc4)cc3)nn2)C(=O)NC2CCN(C)CC2)CC1 (configuration not stated)

Emax [2]: 84.1%
Compound: Cc1cccnc1C1(C(=O)NC(Cc2cn(-c3ccc(-c4ccc(C#N)cc4)cc3)nn2)C(=O)NCCCCOc2cccc3c2C(=O)N(C2CCC(=O)NC2=O)C3=O)CC1 (configuration not stated)

Compound: O=C(c1cc(Cc2n[nH]c(=O)c3ccccc23)ccc1F)N1CCN(C(=O)C2CC2)CC1
Activity (MDA-MB-468 [3]): Active | Activity (MDA-MB-468 [4]): Active | Activity (MDA-MB-468 [5]): Active | Activity (MDA-MB-468 [6]): Dose-Dependent Effect | Activity (MDA-MB-468 [7]): Active | Activity (MDA-MB-468 [8]): Active | Activity (MDA-MB-468 [9]): Active

Activity [10]: inactive
Compound: CC(C)(C)NC(=O)C(Cc1cn(-c2ccc(-c3ccc(C#N)cc3)cc2)nn1)NC(=O)C1(c2ccccc2)CC1 (configuration not stated)

Compound: CC(C)(C)CN(C(=O)CCl)C1CCS(=O)(=O)C1 (configuration not stated)
Activity (MDA-MB-468 [11]): Active | Activity (MDA-MB-468 [12]): Dose-Dependent Effect | Activity (MDA-MB-468 [13]): Active | Activity (MDA-MB-468 [5]): Active | Activity (MDA-MB-468 [14]): Active | Activity (MDA-MB-468 [15]): Active | Activity (MDA-MB-468 [16]): Active

Activity [10]: inactive
Compound: CNC(=O)C(Cc1cn(-c2ccc(-c3ccc(C#N)cc3)cc2)nn1)NC(=O)Cc1ccccc1 (configuration not stated)

Activity [10]: inactive
Compound: CNC(=O)C(Cc1cn(-c2ccc(C3CCN(C)CC3)cc2)nn1)NC(=O)C1(c2ccccc2)CC1 (configuration not stated)

Emax [2]: 92.5% | Activity [17]: Dose-Dependent Effect | Activity [18]: inactive
Compound: Cc1cccnc1C1(C(=O)NC(Cc2cn(-c3ccc(-c4ccc(C#N)cc4)cc3)nn2)C(=O)NC2CCN(CCCCCOc3cccc4c3C(=O)N(C3CCC(=O)NC3=O)C4=O)CC2)CC1 (configuration not stated)

Activity [10]: inactive
Compound: CNC(=O)C(Cc1cn(-c2ccc(-c3ccc(C#N)cc3)cc2)nn1)NC(=O)C1(c2ccccc2)CCC1 (configuration not stated)

Activity [10]: inactive
Compound: CNC(=O)C(Cc1cn(-c2ccc(-c3ccc(C#N)cc3)cc2)nn1)NC(=O)C1(c2ccccc2)CCCC1 (configuration not stated)

Activity [10]: inactive
Compound: CNC(=O)C(Cc1cn(-c2ccc(-c3ccc(C#N)cc3)cc2)nn1)NC(=O)C1(c2ccccc2)CCCCC1 (configuration not stated)

Emax [2]: 78.9%
Compound: Cc1cccnc1C1(C(=O)NC(Cc2cn(-c3ccc(-c4ccc(C#N)cc4)cc3)nn2)C(=O)NCCCOc2cccc3c2C(=O)N(C2CCC(=O)NC2=O)C3=O)CC1 (configuration not stated)

Emax [2]: 91.8%
Compound: Cc1cccnc1C1(C(=O)NC(Cc2cn(-c3ccc(-c4ccc(C#N)cc4)cc3)nn2)C(=O)NC2CCN(CCCOc3cccc4c3C(=O)N(C3CCC(=O)NC3=O)C4=O)CC2)CC1 (configuration not stated)

One block for each compound: values may come before it. Active and inactive are the calls of the source. No cut-off for these calls is given here.
